Test results from PubChem BioAssay AID504652 (National Center for Advancing Translational Sciences (NCATS), 2011).
Only a part is listed here, and it is no random draw. Active and inactive are the calls of the source. Cut-off read from the data, not from the text of the source: active = activity change below about -30%; inactive = the rest.

The chains behind the UniProt entries cited, without tags or fusion partners.
UniProt P21728, whole entry: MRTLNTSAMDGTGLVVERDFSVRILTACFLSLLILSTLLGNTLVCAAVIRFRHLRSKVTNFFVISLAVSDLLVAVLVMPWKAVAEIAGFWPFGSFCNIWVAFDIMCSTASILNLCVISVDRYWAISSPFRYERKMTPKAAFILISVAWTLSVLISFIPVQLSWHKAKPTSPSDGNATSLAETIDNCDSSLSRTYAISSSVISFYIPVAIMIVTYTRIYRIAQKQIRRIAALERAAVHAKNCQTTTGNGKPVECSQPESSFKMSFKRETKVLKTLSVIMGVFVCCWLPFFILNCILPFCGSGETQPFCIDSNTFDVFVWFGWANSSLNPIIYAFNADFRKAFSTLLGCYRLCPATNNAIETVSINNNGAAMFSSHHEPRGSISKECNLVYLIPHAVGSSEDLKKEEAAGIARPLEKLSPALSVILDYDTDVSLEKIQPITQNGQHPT

Each molecule was assayed against D(1A) dopamine receptor (Homo sapiens) (UniProt P21728) (assay: Antagonist of Human D 1 Dopamine Receptor: qHTS). Details: HEK293 TREx D1 cells, calcium flux, dopamine EC80; at 10 µM; stronger effect = lower value.
Excerpt: Dopamine receptors (DARs) are involved in the etiology and/or therapy of a number of neuropsychiatric and endocrine disorders. For instance, all receptor-based antiparkinsonian drugs work via stimulating the […] DAR subtype whereas all FDA-approved antipsychotic agents are antagonists of this receptor. […] There are three different types of allosteric modulators that we are seeking, two of which will stimulate or augment receptor signaling, allosteric agonists and potentiators, while the third, allosteric antagonists, will attenuate receptor signaling. The present primary screening assay measures compound antagonism after an EC80 addition of dopamine by tracking calcium flux in a […], inducible Hek293 Trex D1 cell line. NIH Chemical Genomics Center [NCGC] NIH Molecular Libraries Probe Centers Network [MLPCN] MLPCN Grant: NS064831-01 Assay Submitter (PI): David Sibley
Freshly passaged cells are plated in 1536 well black, clear bottom plates at a density of 4000 cells/well in 3 ul of complete media containing 1x tetracycline inducer. After an overnight incubation at 30 C in 5% CO2, cells are loaded with 2 ul of the no wash Calcium Assay Kit (ABD Bioquest) and incubated at room temperature for 30 to 90 minutes. Agonist read: A 10 cycle (1 second/cycle) baseline measurement is taken and then the FDSS online 1536 pintool delivers 23 nl of compound library (as well as dopamine controls) to the plate. The plate is measured for kinetically at 1 cycle/sec for 180 seconds. Following the 180 second read, 1 ul of an EC80 (negative modulation assay) is delivered by an onboard pipette head. Measurements are taken kinetically for an additional 180 seconds.
% is set by controls: 0 for no effect and ±100 for the full control effect.

Row | Compound | activity change, negative = inhibition
1 | CC1=NCCc2c1[nH]c1ccccc21.O=[N+]([O-])c1cc([N+](=O)[O-])c(O)c([N+](=O)[O-])c1 | inactive: 6.1%
2 | COc1ccccc1OP(C)(=O)Nc1cccc(Br)c1 (stereo not given) | inactive: -5.43%
3 | CCOC(=O)c1ccc(NP(C)(=O)Oc2cc(C)cc(C)c2)cc1 (stereo not given) | inactive: -2.42%
4 | Cc1cc(C)cc(OP(C)(=O)Nc2ccc(C)cc2C)c1 (stereo not given) | inactive: -9.49%
5 | Cc1ccc(C)c(NP(C)(=O)Oc2ccccc2)c1 (stereo not given) | inactive: -24.6%
6 | CP(=O)(Nc1cccc(Br)c1)Oc1ccccc1 (stereo not given) | inactive: -7.16%
7 | Cc1cc(C)cc(OP(C)(=O)Nc2ccccn2)c1 (stereo not given) | inactive: 8.45%
8 | O=[N+]([O-])c1cc([N+](=O)[O-])c(-n2nnc3ccccc32)c([N+](=O)[O-])c1 | inactive: -9.57%
9 | Cc1nc2ccc3ccccc3c2s1.O=[N+]([O-])c1cc([N+](=O)[O-])c(O)c([N+](=O)[O-])c1 | inactive: -4.93%
10 | O=[N+]([O-])c1cc([N+](=O)[O-])c(Nc2nnnn2CCO)c([N+](=O)[O-])c1 | inactive: -18.4%
11 | CC1=C2N=C(C=C3N=C(C(C)=C4[N-][C@@](C)([C@@H]5N=C1[C@](C)(CCC(=O)NC[C@@H](C)OP(=O)([O-])O[C@H]1[C@@H](O)[C@@H](n6cnc7cc(C)c(C)cc76)O[C@@H]1CO)[C@H]5CC(N)=O)[C@@](C)(CC(N)=O)[C@@H]4CCC(N)=O)[C@@](C)(CC(N)=O)[C@@H]3CCC(N)=O)C(C)(C)[C@@H]2CCC(N)=O.[C-]#N.[Co+3] | inactive: -15.6%
12 | CN1CCCCC1COC(=O)C1(O)c2ccccc2CCc2ccccc21 (stereo not given) | inactive: -7.73%
13 | COc1ccccc1OP(C)(=O)Nc1c(C)cccc1C (stereo not given) | inactive: -3.15%
14 | CP(=O)(Nc1ccc(SC(F)(F)F)cc1)Oc1ccccc1 (stereo not given) | inactive: 17.9%
15 | CCCOc1ccc(NP(C)(=O)Oc2ccc(Cl)cc2)cc1 (stereo not given) | inactive: 1.26%
16 | CP(=S)(Nn1cnnc1)Oc1ccccc1 (stereo not given) | inactive: 12.3%
17 | CP(=O)(Nc1ccccc1Br)Oc1ccccc1 (stereo not given) | inactive: 3.66%
18 | COc1ccccc1OP(C)(=O)Nc1ccccc1 (stereo not given) | inactive: -7.69%
19 | CP(=O)(Oc1ccccc1)OC(c1ccccc1)C(F)(F)F (stereo not given) | inactive: -9.11%
20 | CP(=O)(Nc1ccc(SC(F)(F)F)cc1)Oc1ccc(Cl)cc1 (stereo not given) | inactive: 1.04%
21 | Cc1cccc(C)c1OP(C)(=O)Nc1ccc(SC(F)(F)F)cc1 (stereo not given) | inactive: -5.61%
22 | Cc1cc(C)cc(OP(C)(=O)Nc2ccc(SC(F)(F)F)cc2)c1 (stereo not given) | inactive: 1.79%
23 | CP(=O)(NC(=O)Nc1ccccc1)Oc1ccccc1 (stereo not given) | inactive: -3.21%
24 | CCOC(=O)c1ccc(NP(C)(=O)Oc2ccc(OC)cc2)cc1 (stereo not given) | inactive: 6.58%
25 | CCOP(C)(=S)SCC(=O)NC(C)C(=O)O (stereo not given) | inactive: -2.28%
26 | CP(=O)(Nc1ccccn1)Oc1ccc(Cl)cc1 (stereo not given) | inactive: 24.7%
27 | CCN(CC)CCCOC(=O)C(O)(c1ccccc1)c1ccccc1 | inactive: -24.8%

Row | Compound | activity change, negative = inhibition
28 | O=[N+]([O-])c1cc([N+](=O)[O-])c(Nc2cccnc2)c([N+](=O)[O-])c1 | inactive: -29.8%
29 | O=[N+]([O-])c1ccc2c(c1)C=Nc1ccccc1O2 | inactive: -7.64%
30 | Cc1cccc(C)c1OP(C)(N)=O (stereo not given) | inactive: -13.2%
31 | CC(C)(C)c1ccc(OP(C)(=O)Nc2ccc(SC(F)(F)F)cc2)cc1 (stereo not given) | inactive: -6.32%
32 | Cc1ccc(NP(C)(=O)Oc2ccccc2)c(C)c1 (stereo not given) | inactive: -8.62%
33 | COc1ccccc1OP(C)(=O)Nc1ccc(C)cc1 (stereo not given) | inactive: -7.14%
34 | CCOC(=O)c1ccc(NP(C)(=O)Oc2ccccc2)cc1 (stereo not given) | inactive: 6.11%
35 | Cc1cc(C)cc(OP(C)(N)=O)c1 (stereo not given) | inactive: -7.05%
36 | COc1ccc(OP(C)(=O)Nc2cccc(F)c2)cc1 (stereo not given) | inactive: -7.06%
37 | COc1ccccc1OP(C)(=O)Nc1cc(Cl)ccc1C (stereo not given) | inactive: 28.1%
38 | Cc1cc(C)cc(OP(C)(=O)Nc2cccc(C(F)(F)F)c2)c1 (stereo not given) | inactive: -19.9%
39 | COc1ccccc1OP(C)(=O)Nc1ccc(C)c(C)c1 (stereo not given) | inactive: 0.729%
40 | COc1ccc(OP(C)(=O)Nc2ccccc2Br)cc1 (stereo not given) | inactive: -17.7%
41 | Cc1nc2ccc3ccccc3c2o1.O=[N+]([O-])c1cc([N+](=O)[O-])c(O)c([N+](=O)[O-])c1 | inactive: -19.3%
42 | CP(=O)(OCCOc1ccccc1)OCCOc1ccccc1 | inactive: 12.1%
43 | CP(=O)(Nc1ccc(Cl)cc1Cl)Oc1ccccc1 (stereo not given) | inactive: -8.32%
44 | COc1ccccc1OP(C)(=O)Nc1ccc(Br)cc1 (stereo not given) | inactive: 2.55%
45 | COc1ccc(OP(C)(=O)Nc2ccccn2)cc1 (stereo not given) | inactive: -6.06%
46 | CN(C)CCOC(=O)C(O)(c1ccccc1)C1CCCC1 (stereo not given) | inactive: -4.53%
47 | O=[N+]([O-])c1cc([N+](=O)[O-])c(Nc2ccccn2)c([N+](=O)[O-])c1 | inactive: -14.1%
48 | Cc1c(NP(C)(=O)Oc2ccc(C(C)C)cc2)c(=O)n(-c2ccccc2)n1C (stereo not given) | inactive: -20.2%
49 | COc1ccccc1OP(C)(=O)Nc1ccc(C)cc1C (stereo not given) | inactive: -8.05%
50 | CP(=O)(Nc1ccccn1)Oc1ccccc1 (stereo not given) | inactive: 7.62%
51 | CCc1ccc(OP(C)(=O)O)cc1 | inactive: 1.91%
52 | COc1ccc(OP(C)(=O)Nc2ccc(Br)cc2)cc1 (stereo not given) | inactive: -2.56%
53 | CCN(CC)CC(O)COC(=O)C(O)(c1ccccc1)C1CCCCC1 (stereo not given) | inactive: -13.9%
54 | O=C(OCCCN1CCCC1)C(O)(c1ccccc1)C1CCCCC1 (stereo not given) | inactive: 4.33%

Row | Compound | activity change, negative = inhibition
55 | COc1ccccc1OP(C)(=O)Nc1c(C)n(C)n(-c2ccccc2)c1=O (stereo not given) | inactive: -7.66%
56 | CCc1ccc(OP(C)(=O)Nc2cccnc2)cc1 (stereo not given) | inactive: 3.99%
57 | CP(=O)(Oc1ccccc1)N1CCOC1=O (stereo not given) | inactive: 0.208%
58 | CC(C)(C)c1ccc(OP(C)(=O)O)cc1 | inactive: -1.41%
59 | COc1ccccc1OP(C)(=O)Nc1ccccc1Br (stereo not given) | inactive: -20.1%
60 | CP(=O)(Nc1ccc(Cl)cc1)Oc1ccc(F)cc1 (stereo not given) | inactive: 7.69%
61 | CN(C)C(=O)c1c([N+](=O)[O-])cc([N+](=O)[O-])cc1[N+](=O)[O-] | inactive: 1.38%
62 | CCOC(=O)c1ccc(NP(C)(=O)Oc2ccc(Cl)cc2)cc1 (stereo not given) | inactive: -8.12%
63 | CP(=O)(OC12CC3CC(CC(C3)C1)C2)OC12CC3CC(CC(C3)C1)C2 | inactive: 12.6%
64 | COc1ccc(OP(C)(=O)Nc2cccc(Br)c2)cc1 (stereo not given) | inactive: -9.29%
65 | CN(C)CCOC(=O)C(O)(c1ccccc1)C1CCCCC1 (stereo not given) | inactive: 13.7%
66 | COc1ccc(NP(C)(=O)Oc2ccccc2OC)cc1 (stereo not given) | inactive: 13.1%
67 | O=[N+]([O-])c1ccc(OP2(=O)COCCO2)cc1 (stereo not given) | inactive: -10.3%
68 | Cc1cc(-c2cccc3ccccc23)c(C)cn1.O=[N+]([O-])c1cc([N+](=O)[O-])c(O)c([N+](=O)[O-])c1 | inactive: -18.9%
69 | CP(=O)(Nc1ccc(SC(F)(F)F)cc1)Oc1ccc(F)cc1 (stereo not given) | inactive: -17.9%
70 | CCOP(C)(=S)SCC(=O)NC(C)(CC)C(=O)O (stereo not given) | inactive: -4.99%
71 | CP(=O)(Nc1ccc2c(c1)OCCO2)Oc1ccccc1 (stereo not given) | inactive: -5.21%
72 | Cc1ccccc1NP(C)(=O)Nc1ccccc1C | inactive: 7.18%
73 | CP(=O)(Nc1ccccc1F)Oc1ccccc1 (stereo not given) | inactive: -9.02%
74 | CC(C)c1ccc(OP(C)(=O)Nc2ccc(SC(F)(F)F)cc2)cc1 (stereo not given) | inactive: 20.7%
75 | O=C(OCCN1CCN(CCOCc2ccccc2)CC1)C(O)(c1ccccc1)c1ccccc1 | inactive: 0.113%
76 | CCOC(=O)c1ccc(NP(C)(=O)Oc2ccc(F)cc2)cc1 (stereo not given) | inactive: -16.7%
77 | COc1ccc(OP(C)(=O)Nc2ccc(SC(F)(F)F)cc2)cc1 (stereo not given) | inactive: 4.9%
78 | CCN(CC)CCCOC(=O)C(O)(c1ccccc1)C1CCCCC1 (stereo not given) | inactive: -1.36%
79 | CP(=O)(Nc1ccccc1)Oc1ccc(F)cc1 (stereo not given) | inactive: -25.2%
80 | CCCCCOc1ccc(NP(C)(=O)Oc2ccc(Cl)cc2Cl)cc1 (stereo not given) | inactive: 10.4%
